Data as given in patent publication US7268212B2, “Ligand of G protein-coupled receptor protein and DNA thereof” (Takeda Pharmaceutical Company Limited, priority 2001, dated 2007).

Biological target: T1, GPR7 (Homo sapiens, UniProt P48145)
T1 sequence (P48145 1-328): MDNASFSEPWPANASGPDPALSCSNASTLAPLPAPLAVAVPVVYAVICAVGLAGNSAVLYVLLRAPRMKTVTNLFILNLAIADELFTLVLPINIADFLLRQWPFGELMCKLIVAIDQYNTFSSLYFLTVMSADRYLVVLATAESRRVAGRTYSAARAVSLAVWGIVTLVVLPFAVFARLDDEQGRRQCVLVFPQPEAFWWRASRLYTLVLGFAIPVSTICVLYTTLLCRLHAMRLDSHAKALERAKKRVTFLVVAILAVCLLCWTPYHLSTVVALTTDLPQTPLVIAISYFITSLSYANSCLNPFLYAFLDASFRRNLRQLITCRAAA
Assay: Intracellular cAMP production suppression activity on human GPR7-expressed CHO cells
Type: cell-based
Design: The synthetic primers were constructed so as to amplify the gene in the region to be translated to its receptor protein; expressed in transfected cells; host or cells: CHO cells, membrane fraction
Details: forskolin-promoted cAMP production; receptor-expressed CHO cells; read-out: IC50 (nM) human GPR7, cAMP production inhibition
Procedure: The intracellular cAMP production suppression activity of peptides associated with various GPR7 ligands on CHO cells, in which human GPR7, bovine GPR8, human GPR8, human GPR8, bovine GPR8 and rat GPR7 were expressed, was examined. […] An assay buffer was prepared by adding 20 mM HEPES, pH7.4, 0.1% bovine serum albumin and 0.2 mM 3-isobutyl-1-methylxanthine (Sigma) to Hanks' Balanced Salt Solution (Gibco BRL). The plate incubated overnight was first washed twice with 150 μl of the assay buffer, and then exchanged with 150 μl of the assay buffer, followed by incubation for 30 minutes at 37° C. in 100% air. By adding 4 μM forskolin to the assay buffer, a buffer for sample dilution was prepared and the stock solution (10^−2 M of 10^−3 M) was diluted with the buffer thus obtained to prepare sample solutions in final concentrations of 10^−6 M, 10^−7 M, 10^−8 M, 10^−9 M and 10^−10 M. The plate incubated with the assay buffer for 30 minutes was taken out. After washing twice with the assay buffer, 50 μl of the assay buffer and then 50 μl of the sample solution were added thereto. Each sample was assayed in triplet. […] A difference between the maximum cAMP level and the cAMP level when each sample was added was calculated and the percentage of cAMP production level promoted by forskolin was worked out, which was made the cAMP production inhibition rate.

CC(C)C[C@H](NC(=O)CNC(=O)[C@H](CO)NC(=O)[C@H](CC(C)C)NC(=O)[C@H](CC(C)C)NC(=O)CNC(=O)[C@H](C)NC(=O)[C@H](C)NC(=O)[C@H](CCCNC(=N)N)NC(=O)CNC(=O)[C@@H](NC(=O)[C@H](CO)NC(=O)[C@H](Cc1ccc(O)cc1)NC(=O)[C@H](CO)NC(=O)[C@H](CO)NC(=O)[C@H](Cc1c[nH]cn1)NC(=O)CNC(=O)[C@H](C)NC(=O)[C@H](C)NC(=O)[C@@H]1CCCN1C(=O)[C@H](CCCCN)NC(=O)[C@H](Cc1ccc(O)cc1)NC(=O)[C@@H](N)Cc1c[nH]c2ccccc12)C(C)C)C(=O)O [Trp1-human GPR7L(23)]
IC50: 0.58 nM
